The values below come from patent US20080300259A1.

Protein sequences, listed by entry. Tags and fused reporters are not part of them.
UniProt Q01959, whole entry: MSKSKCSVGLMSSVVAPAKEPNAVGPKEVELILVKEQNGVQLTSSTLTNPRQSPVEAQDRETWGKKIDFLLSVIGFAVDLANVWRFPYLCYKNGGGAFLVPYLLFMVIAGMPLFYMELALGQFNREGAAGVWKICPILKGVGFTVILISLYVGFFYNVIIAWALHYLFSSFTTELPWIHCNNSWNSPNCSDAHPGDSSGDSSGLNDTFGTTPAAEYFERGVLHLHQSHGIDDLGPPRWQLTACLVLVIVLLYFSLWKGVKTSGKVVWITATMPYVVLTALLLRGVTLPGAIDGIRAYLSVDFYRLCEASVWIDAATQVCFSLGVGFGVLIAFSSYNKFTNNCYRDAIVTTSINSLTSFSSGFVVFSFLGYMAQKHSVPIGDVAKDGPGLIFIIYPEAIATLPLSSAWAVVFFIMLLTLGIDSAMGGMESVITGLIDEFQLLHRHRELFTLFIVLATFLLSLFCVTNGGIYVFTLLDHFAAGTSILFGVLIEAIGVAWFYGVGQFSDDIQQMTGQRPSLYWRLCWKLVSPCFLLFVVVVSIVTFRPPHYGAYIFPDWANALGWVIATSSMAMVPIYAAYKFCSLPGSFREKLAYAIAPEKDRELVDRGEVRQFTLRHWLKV

pIC50: −log10 of the molar value.

Assay [1] has as its target DAT (SLC6A3) (Homo sapiens, UniProt Q01959). Nature of the assay: uptake assay for measuring IC50 of DAT. Particulars: read-out: IC50 against DAT (SLC6A3); in vitro, cells expressing DAT; typical result (FIG. 4). How it is done: (§1) The in vitro inhibitory profile of an illustrative 5HT6—D3/DAT compound, CNS-25,100, was determined by measuring its IC50 using standard assays.
In a typical uptake assay for measuring IC50 of DAT, the assay is performed at room temperature in Krebs-Ringer's-HEPES (KRH) buffer (125 mM NaCl, 4.8 mM KCl, 1.2 mM MgSO4, 1.2 mM KH2PO4, 1.3 mM CaCl2, and 25 mM HEPES, pH 7.4), supplemented with 0.1% D-glucose, 1 mM ascorbic acid, 1 mM tropolone [catechol-O-methyltransferase (EC 2.1.1.6)-inhibitor] and 10 μM pargyline (monoamine oxidase-B inhibitor). Before the assay, cells expressing DAT are washed once with KRH and equilibrated for 5 min. The cells may be assayed in 24-well plates and incubated for 2-5 min with tritiated amines. Nontransported inhibitors were preincubated for 5 min, and substrates were applied together with the tritiated substrate. The uptake assay is terminated with two washes of ice-cold KRH, and the accumulated radioactivity is recovered by lysing the cells in 0.2% SDS and 0.1 N NaOH and counting on a Liquid Scintillation Analyzer 1900 TR (Packard, Meriden, Conn.). Nonspecific uptake can be determined in the presence of 10 μM GBR12909 (for hDAT). […]
Vmax values for amine uptake in stable transfected DAT-cells are determined in parallel assays for at least two amines per experiment and expressed as relative values.

Assay [2] deals with 5-HT-6 receptor. The assay can be described thus: standard uptake assay using labeled 5-HT for IC50 at 5-HT-6 receptor. Particulars: read-out: IC50 for 5-HT-6 receptor; in vitro; typical result (FIG. 4). How it is done:
as §1
Similarly, IC50 for 5-HT-6 receptor can be measured using a standard uptake assay using labled 5-HT. See Rudolph et al., J. Pharmacol. Exp. Ther. 287(1): 389-94, 1998. Briefly, the time course of the 5HT uptake can be determined by incubating each cell/tissue with the receptor at different periods in containers containing 2 ml of RBS without Ca++ at 30° C. in which [^3H]5HT (38 nM) is added. For estimating the kinetic parameters of 5HT uptake, several concentrations of [^3H]5HT may be used, ranging, for example, from 25 to 240 mM, using a 30-min incubation period. Corresponding incubations were conducted in a Na+-free medium to correct for nonspecific uptake. Radioactivity not incorporated by the tissue/cell is washed off by further incubation for 10 min in 100 ml of RBS. The tissue/cell is homogenized in 2 ml of 10% perchloric acid at the end of the incubation. The resulting suspension is centrifuged at 600×g for 5 min and 0.1 ml of the supernatant is analyzed for radioactivity.

For orientation: pIC50 means −log10 of the IC50, conventionally taken in molar units. For `CC1CCC(c2nc(C3(c4ccccc4F)CCCC3)cs2)CN1C1(c2ccc(Cl)cc2)CCC1` (centres unmarked), the figures for the pIC50 in assay [1] and in assay [2] were 7.22 to 7.40 and 7.35 to 7.52, respectively.
